US20260382623A1, “NOVEL COMPOUND FOR INHIBITING PROTEIN KINASES AND PHARMACEUTICAL COMPOSITION COMPRISING SAME” (published 2026)

The chains behind the UniProt entries cited, without tags or fusion partners.
UniProt P45983, whole entry: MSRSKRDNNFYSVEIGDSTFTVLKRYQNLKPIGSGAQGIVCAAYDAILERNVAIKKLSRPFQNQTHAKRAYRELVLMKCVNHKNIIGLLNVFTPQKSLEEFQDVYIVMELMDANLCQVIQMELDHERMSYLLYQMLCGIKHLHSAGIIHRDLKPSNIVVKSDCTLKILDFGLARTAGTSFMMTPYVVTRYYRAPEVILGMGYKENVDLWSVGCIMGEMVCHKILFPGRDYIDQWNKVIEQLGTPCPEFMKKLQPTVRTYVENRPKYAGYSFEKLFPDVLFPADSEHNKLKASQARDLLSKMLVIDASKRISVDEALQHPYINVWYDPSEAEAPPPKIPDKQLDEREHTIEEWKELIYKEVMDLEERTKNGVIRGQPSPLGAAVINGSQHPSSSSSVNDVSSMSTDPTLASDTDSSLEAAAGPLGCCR

Key:
AsPC-1 = assay: Cell growth inhibition, AsPC-1 (CCK-8); conditions: read-out: Cell growth inhibition GI50, AsPC-1, 72 hours
MDA-MB-231 = assay: Cell growth inhibition, MDA-MB-231 (CCK-8); conditions: read-out: Cell growth inhibition GI50, MDA-MB-231, 72 hours
HCI-H460 = assay: Cell growth inhibition, HCI-H460 (CCK-8); conditions: read-out: Cell growth inhibition GI50, HCI-H460, 72 hours
SW480 = assay: Cell growth inhibition, SW480 (CCK-8); conditions: read-out: Cell growth inhibition GI50, SW480, 72 hours
full kinase panel = full kinase panel (Homo sapiens, UniProt P45983); assay: Full kinase panel inhibition by Example compounds 8 and 51 at 1 μM (Tables 11 to 14; kinase named in each table line); conditions: JNK1

GI50 (AsPC-1)	GI50 (MDA-MB-231)	GI50 (HCI-H460)	GI50 (SW480)	Compound	kinase inhibition (residual enzyme activity) (full kinase panel)
< 5 µM	< 5 µM	< 5 µM	< 5 µM	Cc1cn(-c2cc(C(=O)Nc3ccc(C)c(N4Cc5cnc(NC6CC6)nc5C5(CC5)C4=O)c3)cc(C(F)(F)F)c2)cn1	–
–	–	–	–	Cc1ccc(Nc2ncc3c(n2)C2(CC2)C(=O)N(c2cc(NC(=O)c4cccc(C(F)(F)F)c4)ccc2C)C3)cn1	◯ (residual enzyme activity values were 40% or less, i.e., inhibited by 60% or more)
